According to patent publication US20210206875A1, “ERBB-2 TARGETING AGENT AND A BISPECIFIC ANTIBODY WITH ANTIGEN-BINDING SITES THAT BIND AN EPITOPE ON AN EXTRACELLULAR PART OF ERB-2 AND ERBB-3, FOR TREATMENT OF AN INDIVIDUAL WITH AN ERBB-2, ERBB-2/ERBB-3 POSITIVE TUMOUR” (Merus N.V., priority 2017, published 2021):
“And” between values parts separate entries of the source, which are not always exact repeats. Identical values can stand only once.

Tested on: intracranial ST1360B PDX tumors
Assay: Intracranial ST1360B PDX tumor model
Format: in vivo, mouse
Conditions: MRI, individual mice
Experimental: The viability of total cells was greater than 80%. […] The cells were kept on ice until inoculation.
Drugs were diluted in sterile saline before each dosing. […] The dosing volume was 5.0 mL/kg.
The fixative: tissue ratio was at least 20:1.
Image analysis was performed using Horos.

Substance: trastuzumab-emtansine [T-DM1, reference compound]
- Brain edema score day 3 (scale 0-4 (0 no, 4 massive brain edema), day 3 post initiation of therapy): 1 and 0 (3×) and 2
- Brain edema score day 7 (scale 0-4, day 7): 2 (2×) and 1 (3×)
- Brain edema score day 10 (scale 0-4, day 10): 2 and 3 (2×) and 1
- Brain edema score day 14 (scale 0-4, day 14): 3 (2×) and 2 (3×)
- Brain edema score day 21 (scale 0-4, day 21): 2
- Brain edema score day 28 (scale 0-4, day 28): 3
- Brain edema final score (scale 0-4, last MR scan): 3 (4×) and 2
